How the values were obtained:
[1] = biological target: T1, GFP-hTERT (human TERT produced in cells as a GFP fusion protein) (human, UniProt O14746); assay: GST pulldown from cell extracts, immunoblot with anti-GFP
T1 construct: In extracts of transiently transfected cells; not shown: GFP fusion partner
Protocol: (§1) After extensive wash, the bound proteins were separated on SDS-containing gels, followed by detecting HA-hTERT and GFP-hTERT by immunoblot with anti-HA and GFP antibodies, respectively, and 35S-hTERT by autoradiography.
(§2) GST pulldown, immunoprecipitation and immunoblotting analysis were performed as described (Lu et al., 1999; Shen et al., 1998). Briefly, relevant proteins were expressed in HeLa or HT1080 cells by transient transfection, or translated in vitro using the TNT coupled transcription/translation kit (Promega) in the presence of [³⁵S]-Met, followed by lysis or dilution in a buffer containing 50 mM HEPES, pH 7.5, 150 mM NaCl, 100 mM NaF, 1 mM sodium orthovanadate, 10% glycerol, 1% Triton X100, 10 μg/ml aprotinin, 10 μg/ml leupeptin, 50 μg/ml phenylmethylsulfonyl fluoride and 1 mM DTT. The cellular supernatants were incubated with 1 μM GST or GST fusion proteins for 1 hr at 4° C. and 15 μl of glutathione agarose beads were then added, followed by further incubation for 2 h at 4° C. The precipitated proteins were washed 4 times in the same buffer and subjected to immunoblotting analysis. Other antibodies used for immunoprecipitation and immunoblotting analysis include anti-Pin2/TRF1 (Shen et al., 1997) and anti-hTERT antibodies (Novus). […]

Protein sequences, listed by entry. Tags and fused reporters are not part of them. Lines headed by an entry give the natural chain unless they say otherwise; changes in a name come on top.
UniProt O14746: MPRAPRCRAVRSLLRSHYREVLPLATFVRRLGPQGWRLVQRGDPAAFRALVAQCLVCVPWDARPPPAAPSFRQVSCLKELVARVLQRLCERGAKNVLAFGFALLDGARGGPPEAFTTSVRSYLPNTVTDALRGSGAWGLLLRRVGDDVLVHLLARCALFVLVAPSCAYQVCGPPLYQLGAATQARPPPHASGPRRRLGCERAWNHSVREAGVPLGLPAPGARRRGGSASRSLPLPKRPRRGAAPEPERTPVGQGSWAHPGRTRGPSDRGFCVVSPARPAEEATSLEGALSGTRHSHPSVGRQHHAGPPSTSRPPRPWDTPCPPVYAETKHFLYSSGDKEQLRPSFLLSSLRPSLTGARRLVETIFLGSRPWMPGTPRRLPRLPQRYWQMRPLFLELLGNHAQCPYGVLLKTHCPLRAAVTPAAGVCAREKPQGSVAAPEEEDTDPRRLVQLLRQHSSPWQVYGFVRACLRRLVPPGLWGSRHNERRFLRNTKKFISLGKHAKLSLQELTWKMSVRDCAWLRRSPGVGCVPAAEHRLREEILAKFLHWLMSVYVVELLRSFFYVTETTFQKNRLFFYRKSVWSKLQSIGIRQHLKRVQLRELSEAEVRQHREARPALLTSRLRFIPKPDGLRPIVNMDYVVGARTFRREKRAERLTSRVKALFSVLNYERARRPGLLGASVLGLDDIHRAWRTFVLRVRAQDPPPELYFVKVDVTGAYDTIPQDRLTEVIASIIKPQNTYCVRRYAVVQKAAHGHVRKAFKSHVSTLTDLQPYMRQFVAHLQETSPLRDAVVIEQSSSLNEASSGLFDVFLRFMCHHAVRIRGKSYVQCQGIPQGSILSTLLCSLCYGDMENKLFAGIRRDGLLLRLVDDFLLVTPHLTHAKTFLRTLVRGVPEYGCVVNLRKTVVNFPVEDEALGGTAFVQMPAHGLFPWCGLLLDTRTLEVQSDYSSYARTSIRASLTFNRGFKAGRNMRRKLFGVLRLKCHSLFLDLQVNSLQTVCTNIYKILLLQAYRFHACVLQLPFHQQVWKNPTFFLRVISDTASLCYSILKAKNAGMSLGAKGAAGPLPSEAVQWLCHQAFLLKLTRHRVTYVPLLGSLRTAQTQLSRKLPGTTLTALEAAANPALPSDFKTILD
UniProt P54274: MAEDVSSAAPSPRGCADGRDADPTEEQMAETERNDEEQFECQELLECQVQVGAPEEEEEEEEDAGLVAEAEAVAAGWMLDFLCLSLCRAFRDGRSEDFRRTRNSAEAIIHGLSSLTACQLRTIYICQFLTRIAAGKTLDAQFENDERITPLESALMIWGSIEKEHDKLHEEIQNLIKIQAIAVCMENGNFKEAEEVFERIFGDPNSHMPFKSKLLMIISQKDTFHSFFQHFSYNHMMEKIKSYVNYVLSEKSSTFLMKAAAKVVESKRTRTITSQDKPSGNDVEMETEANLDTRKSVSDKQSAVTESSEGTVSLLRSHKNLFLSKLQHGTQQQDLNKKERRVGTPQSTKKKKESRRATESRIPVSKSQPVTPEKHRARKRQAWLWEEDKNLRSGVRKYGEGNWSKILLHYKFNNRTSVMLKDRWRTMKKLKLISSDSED

[2] = biological target: 35S-hTERT (human TERT synthesized by in vitro transcription and translation) (human, UniProt O14746, [35S]-Met labelled); assay: GST pulldown of in vitro translated protein, autoradiography
[3] = biological target: T2, [35S]-Pin2 (Pin2 synthesized by in vitro transcription and translation) (human, UniProt P54274 2-439, [35S]-Met labelled); assay: as above
T2 sequence: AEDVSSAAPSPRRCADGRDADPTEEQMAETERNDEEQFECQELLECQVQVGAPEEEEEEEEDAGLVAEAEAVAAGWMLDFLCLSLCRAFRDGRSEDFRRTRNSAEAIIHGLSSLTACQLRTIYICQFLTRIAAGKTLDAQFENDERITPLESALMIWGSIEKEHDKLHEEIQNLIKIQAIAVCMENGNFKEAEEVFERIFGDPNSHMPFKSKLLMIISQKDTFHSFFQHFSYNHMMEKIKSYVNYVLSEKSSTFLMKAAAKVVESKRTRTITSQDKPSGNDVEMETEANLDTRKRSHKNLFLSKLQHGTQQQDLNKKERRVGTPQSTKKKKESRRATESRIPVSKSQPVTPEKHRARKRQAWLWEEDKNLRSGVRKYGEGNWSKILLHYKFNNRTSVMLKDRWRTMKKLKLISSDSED

[4] = biological target: T3, HA-hTERT (human TERT produced in cells as a HA epitope tagged protein) (human, UniProt O14746); assay: GST pulldown from cell extracts, immunoblot with anti-HA
T3 construct: In extracts of transiently transfected cells
Protocol: as §1, §2

Measured: binding result

B1: GST (glutathione-S-transferase alone, on glutathione beads) (other, UniProt P08515 1-218, looked up)
chain: MSPILGYWKIKGLVQPTRLLLEYLEEKYEEHLYERDEGDKWRNKKFELGLEFPNLPYYIDGDVKLTQSMAIIRYIADKHNMLGGCPKERAEISMLEGAVLDIRYGVSRIAYSKDFETLKVDFLSKLPEMLKMFEDRLCHKTYLNGDHVTHPDFMLYDALDVVLYMDPMCLDAFPKLVCFKKRIEAIPQIDKYLKSSKYIAWPLQGWQATFGGGDHPPK
notes: Control protein; also called GST tag
no binding (tested: 1 µM): [1] | [2] | [3] | [4]

Source: patent publication US20040142357A1 (BETH ISRAEL DEACONESS MEDICAL CENTER, published 2004)
